## Measured affinities in a library of Ab-95 light chain variants

Binding partner: SARS-CoV-2 spike HR2 peptide, sequence PDVDLGDISGINAS.

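Phage display of a naive human antibody library on the peptide gave the parent. AAYL52 was designed without a model: most single CDR substitutions and a random sample of double and triple ones. Affinity was read by AlphaSeq, a pooled yeast mating assay with surface-displayed partners. The frequency of each diploid, read from paired DNA barcodes, reflects how well the two displayed proteins bind. Read counts were normalised to the haploid input and turned into Kd by a linear fit to BCL2-family pairs of known affinity, for each replicate. Each pool was mated in three replicate cultures.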

Parent scFv Ab-95: VH joined to VL by three GGGGS repeats. Changes lie in the light chain CDRs alone.
VH: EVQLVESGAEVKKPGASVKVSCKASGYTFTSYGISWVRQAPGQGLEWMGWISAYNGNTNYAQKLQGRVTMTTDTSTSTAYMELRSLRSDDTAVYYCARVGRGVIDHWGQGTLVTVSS
VL: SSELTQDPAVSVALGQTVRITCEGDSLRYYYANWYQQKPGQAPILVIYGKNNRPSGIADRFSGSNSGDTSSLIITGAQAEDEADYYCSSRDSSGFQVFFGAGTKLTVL

Positions count from residue 1 of the parent VL; Y30T puts T in place of Y. The read-out is the apparent dissociation constant on a log10 scale (nM): the lower, the stronger. A mean of the replicates is given; it leaves out those without a signal. "n.d." marks a missing value. The strain was present, yet no cells mated with the target were sequenced in that replicate, which points to weak or no binding. Background: pairings of library AAYL52 with three empty control strains gave a value in 28% of cases (median 3.91, 5th percentile 2.90). Values in that range, when seen in few replicates, are hard to tell from nonspecific mating. Also given: how often the same scFv was detected with the empty control strains, with their mean in brackets.

| # | changes | log10 Kd (nM) by replicate | log10 Kd (nM), mean | empty controls |
|---|---|---|---|---|
| 1 | Y30T/N52S | 1.37 1.32 0.71 | 1.13 | 1/9 (3.41) |
| 2 | S26E/Y31D/A32T | 2.15 1.94 1.82 | 1.97 | 5/9 (3.86) |
| 3 | G49K/N51A/R53A | 4.72 4.83 n.d. | 4.78 | 1/9 (3.54) |
| 4 | G24A/N51I/S89A | n.d. n.d. n.d. | n.d. | 0/9 |
| 5 | S26T/Y31I/D91P | n.d. n.d. n.d. | n.d. | 0/9 |
| 6 | Y31D/S92P/Q96W | 1.65 1.45 1.27 | 1.46 | 3/9 (3.70) |
| 7 | Y30I/R53W/S88F | n.d. n.d. n.d. | n.d. | 3/9 (5.08) |
| 8 | N33A/N51E/S88Y | 4.72 5.77 4.58 | 5.02 | 4/9 (4.11) |
| 9 | L27M/N51H/R53Q | n.d. 5.04 n.d. | 5.04 | 3/9 (3.81) |
| 10 | E23Y/D25W/R53I | n.d. n.d. n.d. | n.d. | 3/9 (3.93) |
| 11 | N52T/S88C/R90D | 3.32 n.d. n.d. | 3.32 | 3/9 (4.59) |
| 12 | Y30C/N51F | 4.23 3.68 3.31 | 3.74 | 3/9 (3.65) |
| 13 | E23N/Y29A/S55N | 2.04 1.70 1.59 | 1.78 | 3/9 (4.28) |
| 14 | R53M/P54S/S93F | 5.34 4.55 n.d. | 4.94 | 3/9 (3.34) |
| 15 | L27H/Q96P/F98Y | 3.89 n.d. 3.07 | 3.48 | 2/9 (4.88) |
| 16 | S26Y/Y31H | 1.90 1.77 1.33 | 1.66 | 7/9 (4.69) |
| 17 | R28H/G94Q/Q96N | n.d. 2.55 n.d. | 2.55 | 1/9 (3.54) |
| 18 | S88F | 2.87 2.80 2.18 | 2.62 | 1/9 (3.23) |
| 19 | S26H/N52M/S93Q | 2.62 2.45 2.77 | 2.61 | 4/9 (3.76) |
| 20 | L27V/G49S/G94R | n.d. n.d. n.d. | n.d. | 1/9 (3.01) |
| 21 | L27V/S55R/S92H | n.d. n.d. n.d. | n.d. | 1/9 (4.51) |
| 22 | G24W/R28H/Y31S | 3.42 3.11 2.56 | 3.03 | 4/9 (3.75) |
| 23 | S89I/F98G | 4.14 3.60 n.d. | 3.87 | 0/9 |
| 24 | K50E/S88R/Q96Y | n.d. n.d. n.d. | n.d. | 2/9 (4.25) |
| 25 | E23L/S92G | 2.89 2.92 2.27 | 2.69 | 6/9 (4.37) |
| 26 | G49S/N51D/R90C | 4.99 4.64 n.d. | 4.81 | 3/9 (4.01) |
| 27 | R28W/P54H/S92G | n.d. 5.56 n.d. | 5.56 | 5/9 (3.62) |
| 28 | Y29S/K50S/P54Y | 3.20 3.41 3.02 | 3.21 | 2/9 (4.50) |
| 29 | S26A/Y31M/Q96S | 2.82 2.62 2.51 | 2.65 | 3/9 (4.08) |
| 30 | N33V/K50G/F98C | n.d. n.d. 3.46 | 3.46 | 4/9 (4.53) |
| 31 | G24L/R28Y/N51D | 3.56 4.57 n.d. | 4.06 | 4/9 (3.72) |
| 32 | S26Y/R28F/R90C | 2.53 5.54 4.28 | 4.11 | 5/9 (3.76) |
| 33 | D25Q/D91T/G94F | 2.41 2.09 2.74 | 2.41 | 5/9 (4.68) |
| 34 | Y31G/Q96L/V97D | n.d. n.d. n.d. | n.d. | 1/9 (3.47) |
| 35 | Y29R/A32R/S89D | n.d. n.d. n.d. | n.d. | 0/9 |
| 36 | Y29M/Y31K/D91E | 3.17 4.86 3.25 | 3.76 | 5/9 (4.18) |
| 37 | R28N/N51W | n.d. n.d. n.d. | n.d. | 1/9 (5.06) |
| 38 | G49R/S93A/G94R | 3.97 3.67 n.d. | 3.82 | 1/9 (3.20) |

For reference, 4 entries of the list once more:

changes,log10 Kd (nM) by replicate,"log10 Kd (nM), mean",empty controls
S26Y/Y31H,1.90 1.77 1.33,1.66,7/9 (4.69)
N52T/S88C/R90D,3.32 n.d. n.d.,3.32,3/9 (4.59)
R28W/P54H/S92G,n.d. 5.56 n.d.,5.56,5/9 (3.62)
G24A/N51I/S89A,n.d. n.d. n.d.,n.d.,0/9

Source: Engelhart et al. 2022 (doi:10.1038/s41597-022-01779-4), MIT Lincoln Laboratory and A-Alpha Bio; data file from the FLAb repository.